Measured values from ChEMBL document CHEMBL1142685, “Novel anticholinesterases based on the molecular skeletons of furobenzofuran and methanobenzodioxepine” (J Med Chem, 2005).

Sequences of proteins named here, by UniProt entry; tags and fusion partners are left off. A change or cut given only in a name is not applied to a line headed by its entry.
UniProt P22303: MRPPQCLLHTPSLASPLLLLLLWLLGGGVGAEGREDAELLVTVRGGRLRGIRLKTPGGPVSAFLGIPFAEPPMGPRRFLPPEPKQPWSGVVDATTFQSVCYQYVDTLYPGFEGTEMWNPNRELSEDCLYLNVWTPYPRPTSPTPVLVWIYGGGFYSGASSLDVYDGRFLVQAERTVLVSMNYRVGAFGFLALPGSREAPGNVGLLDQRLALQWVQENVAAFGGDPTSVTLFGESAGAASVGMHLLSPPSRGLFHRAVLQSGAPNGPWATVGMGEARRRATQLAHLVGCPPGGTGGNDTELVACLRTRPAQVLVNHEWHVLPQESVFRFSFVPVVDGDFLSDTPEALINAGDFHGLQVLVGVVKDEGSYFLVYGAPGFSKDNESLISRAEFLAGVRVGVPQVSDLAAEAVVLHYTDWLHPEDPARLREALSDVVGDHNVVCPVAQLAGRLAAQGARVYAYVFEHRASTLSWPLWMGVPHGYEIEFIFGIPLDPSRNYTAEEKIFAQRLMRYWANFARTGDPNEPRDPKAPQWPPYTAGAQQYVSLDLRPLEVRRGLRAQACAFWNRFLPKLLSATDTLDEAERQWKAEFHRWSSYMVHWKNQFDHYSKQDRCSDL

Target: Acetylcholinesterase (Homo sapiens, UniProt P22303)

CCNC(=O)Oc1ccc2c(c1)C1(C)COC(C1)O2 (stereo unspecified)
IC50: 830 nM
